{"source": "patent US12544366B2", "about": "“Combination of endocannabinoid and mTOR inhibitors in the treatment of neuroendocrine neoplasms” (HADASIT MEDICAL RESEARCH SERVICES AND DEVELOPMENT LTD., priority 2022, dated 2026)", "test_system": "lung NCI-H727 tumor xenograft", "assay": "Subcutaneous NEN xenograft tumor model", "settings": "day 23; IP injections; control PBS reached 400%"}
{"smiles": "Cc1c(C(=O)NN2CCCCC2)nn(-c2ccc(Cl)cc2Cl)c1-c1ccc(I)cc1", "note": "[AM251]", "values": [{"measurement": "tumor volume versus initial tumor size (100% at baseline)", "result": 250, "unit": "%"}]}
